Measured values taken from EP4831177A1, “CYCLO-HISPRO DERIVATIVE AND USE THEREOF FOR PREVENTING, AMELIORATING OR TREATING FIBROSIS” (dated 2026).

What was measured:
[1] = tested on: CCl4-induced liver fibrosis/MASH model animals; experiment: Hydroxyproline level in liver tissue in CCl4-induced liver fibrosis/MASH model; details: 35 mg/kg oral; for reduction of level of hydroxyproline increased by CCl4: CHP vs NOV-JD-1 (Example 5, FIG. 8)
Description: (§1) Nine-week-old male C57BL6/J mice (Daehan Biolink) were housed in an environment of 23 ± 3°C with free access to food (Purina) and water. After acclimating to the breeding environment for 1 week and measuring their body weight, the mice were randomly distributed to have uniform average body weights and divided into three groups as shown in Table 2. To induce liver fibrosis/MASH, 0.2 mL/kg (CCl4:olive oil = 1:19) of carbon tetrachloride (CCl4) per mouse was intraperitoneally injected into the disease-induced and experimental groups on days 0, 2, 5, 7, 9, 12, 14, 16 and 19. Olive oil was injected in the same manner into the normal control group. NOV-JD-1 was orally administered daily at a concentration of 35 mg/kg. The normal control group and disease-induced group were orally administered the same amount of purified water (DW). Mice were euthanized 12 hour after the last CCl4 injection, and blood and liver tissue were collected.
(§2) In the same manner as in Example 4, the anti-fibrotic effects of CHP and NOV-JD-1 synthesized in Example 1 were compared in an animal model in which fibrosis was induced.
The level of hydroxyproline, which is used as an indicator of collagen accumulation due to fibrosis, was measured using a hydroxyproline assay kit (MAK008, Sigma).

[2] = tested on: BLM-induced IPF model animals; experiment: Gene expression in lung tissue (real-time PCR) in BLM-induced IPF model; details: oral, 25mg/kg (Table 5), CHP vs NOV-JD-1 (Example 9)
Description: (§3) Liver tissues were extracted with NucleoZOL according to the manufacturer's (MACHEREY-NAGEL) total RNA isolation protocol, and 1 µg of RNA was subjected to reverse transcription polymerase chain reaction (RT-PCR) using ReverTra Ace qPCR RT Master Mix (Toyobo) to synthesize cDNA. The synthesized cDNA was analyzed by real-time PCR using primer sets of inflammatory cytokines IL-1β and IL-6 genes and fibrotic genes Collagen I, Collagen III and α-SMA and SYBR Green Realtime PCR Master mix (Toyobo). The primers in Table 2 were synthesized by request to Bioneer. Each gene expression value was corrected by dividing it by the expression value of gapdh, which is a housekeeping gene.
C57BL6/J mice were housed in an environment of 23 ± 3°C after introduction, with free access to food and water. After acclimating to the housekeeping environment for 1 week, 0.03 IU/50µL of bleomycin per subject was injected intratracheally using a catheter to induce IPF. The same amount of saline was injected intratracheally to the normal control group. After 1 week, the body weights were measured, and the mice were randomly distributed to have equal average body weights and divided into three groups as shown in Table 4. The normal control group and the disease-induced group were orally administered DW daily for 2 weeks starting from 1 week after bleomycin injection, and the experimental group was orally administered NOV-JD-1 at a concentration of 35 mg/kg for the same period.
The expression levels of the fibrosis genes Fibronectin, Collagen I, Collagen III, and Collagen IV in lung tissue were evaluated using the primers in Table 2 in the same manner as in Example 4-3.
In an animal model of idiopathic pulmonary fibrosis, the same method as in Example 8 was used to compare the anti-fibrosis effects of CHP and NOV-JD-1 synthesized in Example 1.
The expression levels of α-SMA and Vimentin genes, which are fibrosis genes, in lung tissue were evaluated using the primers in Table 2 in the same manner as in Example 4-3. Each gene expression value was corrected by dividing it by the expression values of β-actin and gapdh, which are housekeeping genes.

[3] = tested on: CCl4-induced liver fibrosis/MASH model animals; experiment: Fibronectin protein expression in liver tissue (Western blot) in CCl4-induced liver fibrosis/MASH model; details: 35 mg/kg oral; for reduction of expression of fibronectin protein increased by CCl4: CHP vs NOV-JD-1 (Example 5)
Description: as §1, §2
Liver tissue was homogenized with 500 µL of RIPA buffer to which protease and phosphatase inhibitors were added, kept on ice for 15 minutes, and centrifuged at 15,000 rpm at 4°C for 10 minutes. The supernatant was collected to recover the lysate, and the subsequent Western blotting process was performed as in Example 2-3 using fibronectin and Gapdh primary antibodies.

[4] = tested on: mouse primary lung fibroblasts; experiment: TGF-β-induced fibrosis protein expression in mouse primary lung fibroblasts (Western blot); details: for reduction of expression of fibronectin increased by TGF-β: CHP vs NOV-JD-1 at the same concentration (Example 7)
Description: (§4) 100 uL of RIPA lysis buffer (Thermo) containing protease and phosphatase inhibitors was added to each recovered cell, and the cells were lysed by pipetting. After incubating on ice for 10 minutes, the cells were centrifuged at 15,000 rpm for 10 minutes at 4°C. The supernatants were collected, and the protein concentration was measured by the BCA quantitation method using a BCA protein quantitation kit (Intron), and the same amount of samples was separated for protein using a Bolt^TM protein gel electrophoresis system (Thermo), and transferred to a nitrocellulose membrane. The membrane was blocked with 5% skim milk for 1 hour at room temperature and then reacted with primary antibodies, fibronectin antibody (Abcam), Gapdh antibody (Cell signaling) and vinculin antibody (Cell signaling) at 4°C overnight. After washing three times for 10 minutes each with TBST, it was reacted with secondary antibodies for 1 hour at room temperature. After washing three times for 10 minutes each with TBST, the expression level was measured by reacting with ECL. The density of the bands that appeared was quantified using the ImageJ program, and the fibronectin band density value was corrected by dividing it by the band density value of the loading control group.
Additionally, to isolate primary lung fibroblasts from mice (Daehan Biolink Co.), the mice were anesthetized with 3% isoflurane, then, laparotomy was performed, the aorta was cut, and 10 mL of PBS was injected into the right ventricle to perfuse and wash the lungs. The lungs were then taken out, washed with cold PBS, and finely ground with a scalpel. The finely ground tissues were dispersed in DMEM medium containing 10% FBS and 1% antibiotics and evenly spread in a 150 mm culture dish. The medium was changed once every two days while culturing in an incubator at 37°C and 5% CO2. On the 6th to 7th day, only the attached cells were isolated and cultured on a new culture dish.
Primary lung fibroblasts isolated from mice were seeded in 6-well plates at a density of 2 × 10^5 cells/well. After 24 hours, the medium was removed, and the negative control group was treated with serum-free medium, and the fibrosis-induced groups were treated with NOV-JD-1 at concentrations of 0 and 25 µM using serum-free medium including TGF-β at a concentration of 5 ng/mL, respectively. After 48 hours, the cells were washed once with cold PBS and recovered using a scraper.
(§5) The expression of fibrosis proteins was analyzed in the same manner as in Example 2-3.
The anti-fibrotic effects of CHP and NOV-JD-1 synthesized in Example 1 were compared in mouse primary lung fibroblasts induced to undergo fibrosis in the same manner as in Example 6.

[5] = tested on: AML12 cells; experiment: TGF-β-induced fibronectin protein expression in AML12 cells (Western blot); details: for reduction of expression of fibronectin increased by TGF-β: comparison CHP vs NOV-JD-1, 10 µM (same concentration) (Example 3, FIG. 4)
Description: AML12 cells (ATCC CRL-2254), which are a mouse liver cell line, were cultured in DMEM/F12 medium (Thermo) containing 10% FBS, 1% antibiotics, and ITS (Insulin/Transferrin/Selenium; Thermo) and dexamethasone (Sigma) at 37°C in an incubator with 5% CO2.
AML12 cells were seeded in 6-well plates at a concentration of 2 × 10^5 cells/well. After 24 hours, the cell medium was removed, and the negative control group was treated with serum-free medium, and the fibrosis-inducing groups were treated with NOV-JD-1 synthesized in Example 1 at concentrations of 0 and 10 µM using serum-free medium containing TGF-β at a concentration of 2 ng/mL, respectively. After 16 hours, the cells were washed once with cold PBS and recovered using a scraper.
as §4
(§6) In the same manner as in Example 2, the anti-fibrotic effects of CHP and NOV-JD-1 synthesized in Example 1 were compared in LX2 cells and AML12 cells induced with fibrosis.

[6] = tested on: LX2 cells; experiment: TGF-β-induced fibronectin protein expression in LX2 cells (Western blot); details: for decrease of expression of fibronectin increased by TGF-β: TGF-β 2 ng/mL, 24 hours (Example 2, FIG. 1); for reduction of expression of fibronectin increased by TGF-β: comparison CHP vs NOV-JD-1, 25 µM (same concentration) (Example 3, FIG. 3)
Description: LX2 cells (Sigma-Aldrich SCC064), which are a human liver cell line, were cultured in DMEM medium (Hyclone) containing 10% FBS (Hyclone) and 1% penicillin/streptomycin antibiotics (Thermo) at 37°C in an incubator with 5% CO2.
LX2 cells were seeded in 6-well plates at a concentration of 2 × 10^5 cells/well. After 24 hours, the cell medium was removed, and the negative control group was treated with serum-free medium, and the fibrosis-inducing groups were treated with NOV-JD-1 synthesized in Example 1 at concentrations of 0, 1, 5 and 25 µM using serum-free medium including TGF-β (R&D systems) at a concentration of 2 ng/mL, respectively. After 24 hours, the cells were washed once with cold PBS and recovered using a scraper.
as §4, §6

[7] = tested on: MRC5 cells; experiment: TGF-β-induced fibronectin protein expression in MRC5 cells (Western blot); details: 10 µM, TGF-β 2 ng/mL, 16 hours (Example 6)
Description: as §4, with “group. […]” for “group.”
as §5

[8] = tested on: CCl4-induced liver fibrosis/MASH model animals; experiment: Liver function test (blood ALT activity) in CCl4-induced liver fibrosis/MASH model; details: 35 mg/kg oral daily, mice (Example 4, FIG. 5)
Description: as §1
For the liver function test of mice, blood was diluted 1:19 using the dilution buffer of the ALT assay kit (K-753) from Biovision and measured according to the kit protocol.

[9] = tested on: CCl4-induced liver fibrosis/MASH model animals; experiment: Gene expression in liver tissue (real-time PCR) in CCl4-induced liver fibrosis/MASH model; details: for reduction of expression of α-SMA gene increased by CCl4: CHP vs NOV-JD-1 (Example 5, FIG. 9); for decrease of gene expression of IL-1β increased by CCl4: CHP vs NOV-JD-1 (Example 5, FIG. 10A); for decrease of gene expression of IL-6 increased by CCl4: CHP vs NOV-JD-1 (Example 5, FIG. 10B)
Description: as §1, §3, §2
The expression levels of the fibrosis gene α-SMA and the inflammatory cytokines IL-1β and IL-6 genes were evaluated using the same method as in Example 4-3.

[10] = relative to the CHP group (Example 5)
[11] = 35 mg/kg oral daily (Example 4, FIG. 6)
[12] = 35 mg/kg oral daily (Example 4, FIG. 7)

Row | Structure (SMILES) | reduction of level of hydroxyproline increased by CCl4 [1] | decrease of expression of Vimentin gene increased by BLM [2] | decrease of expression of αSMA gene increased by BLM [2] | reduction of expression of fibronectin protein increased by CCl4 [3] | reduction of expression of fibronectin increased by TGF-β [4] | reduction of expression of fibronectin increased by TGF-β [5] | reduction of expression of fibronectin increased by TGF-β [6] | reduction of expression of α-SMA gene increased by CCl4 ([9]; 35 mg/kg oral) | decrease of gene expression of IL-1β increased by CCl4 ([9]; 35 mg/kg oral) | decrease of gene expression of IL-6 increased by CCl4 ([9]; 35 mg/kg oral) | also measured
1 | [2H]c1nc(C[C@@H]2NC(=O)[C@@H]3CCCN3C2=O)c[nH]1 | 26.2% | 50.8% | 52.5% | 49.6% | 53.8% | 70.6% | 69.8% | 36.9% | 46.3% | 45.0% | reduction of hydroxyproline by NOV-JD-1 more than that by CHP [1, 10]: 17.9%; decrease of fibronectin protein by NOV-JD-1 compared to CHP [3, 10]: 35.9%; reduction of expression of Collagen I increased by TGF-β ([4]; 25 µM, TGF-β 5 ng/mL, 48 hours (Example 6)): 32%; reduction of fibronectin by NOV-JD-1 greater than that by CHP ([4]; relative to the CHP group (Example 7)): 36.7%; decrease of expression of fibronectin increased by TGF-β ([5]; 10 µM, TGF-β 2 ng/mL, 16 hours (Example 2, FIG. 2)): 48.2%; reduction of fibronectin expression by NOV-JD-1 compared with CHP ([5]; 10 µM, relative to the CHP group (Example 3)): 61.3%; decrease of expression of fibronectin increased by TGF-β ([6]; 1 µM): 21.6%; decrease of expression of fibronectin increased by TGF-β ([6]; 5 µM): 20.1%; decrease of expression of fibronectin increased by TGF-β ([6]; 25 µM): 37.3%; reduction of fibronectin expression by NOV-JD-1 compared with CHP ([6]; 25 µM, relative to the CHP group (Example 3)): 62.8%; reduction of expression of fibronectin increased by TGF-β [7]: 22%; reduction of ALT activity increased by CCl4 [8]: 13.6%; reduction of IL-1β gene expression increased by CCl4 [9, 11]: 46.3%; reduction of IL-6 gene expression increased by CCl4 [9, 11]: 45.0%; reduction of Collagen I gene expression increased by CCl4 [9, 12]: 26.1%; reduction of Collagen III gene expression increased by CCl4 [9, 12]: 23.6%; reduction of α-SMA gene expression increased by CCl4 [9, 12]: 40.7%; reduction of α-SMA gene expression by NOV-JD-1 compared to CHP ([9]; 35 mg/kg oral, relative to the CHP group (Example 5)): 29.4%
2 | O=C1N[C@@H](Cc2c[nH]cn2)C(=O)N2CCC[C@@H]12 | 10.1% | 25.4% | 33% | 21.4% | 27% | 23.9% | 18.9% | 10.7% | 13.4% | 8.6% | –
